{
  "source": "patent US10731222B2",
  "about": "(RNA Diagnostics Inc., priority 2013, dated 2020)",
  "key": {"[1]": {"tested_on": "breast cancer T2-4, N 0-1, M0", "experiment": "Early response studies: RNA Disruption (RDI) 15 days after initiation of therapy", "format": "in vivo, human", "text": "The Limit of Detection for RDI s RDI=0.3. RDI=1.5, 5 times the Level of Detection, was used as a provisional baseline cut off between nonresponders and responders."}, "tumour biopsy samples": {"tested_on": "tumour biopsy samples", "experiment": "Maximal RDI of tumour biopsies before and after the first cycle of neo-adjuvant therapy", "format": "in vivo, human", "settings": "maximal RDI per tumour sample", "experimental": "Biopsy samples before and after a treatment dose were obtained from patients undergoing neo-adjuvant therapy with Trastuzumab. RNA was isolated and analyzed using the Agilent Bioanalyzer. Electropherograms were analyzed using the methods 100 and 400 and the maximal RDI score was graphed for each tumour sample at each time-point.\nBiopsy samples were obtained from patients undergoing neo-adjuvant therapy with Zometa. RNA was isolated and analyzed using the Agilent Bioanalyzer. Electropherograms were analyzed using the methods 100 and 400 and the maximal RDI score was graphed for each tumour sample at each time-point."}},
  "data": [
    {"substance": "Trastuzumab: monoclonal antibody that targets HER2/neu receptor", "values": [
      {"measurement": "RDI Range, Responding Patients", "setting": "[1]", "result": "1.6-2.3"},
      {"measurement": "RDI values after the first cycle", "setting": "tumour biopsy samples", "result": "increased in some patients"}
    ]}
  ]
}
